Measurements: US7501542B2, “Highly-packed polycationic ammonium, sulfonium and phosphonium lipids” (Invitrogen Corporation, priority 1993, dated 2009)

Columns and labels:
CHO-K1 cells = assay: Transfection of CHO-K1 cells with pCMV β-gal DNA, in situ β-galactosidase staining; assay type: cell-based, Chinese hamster
Procedure: (§1) Standard tissue culture methods were employed. […] All cultures were incubated at 37° C., 5% CO2.
(§2) Antibiotics were never present during lipid-mediated transfections.

NIH-3T3 cells = assay: Transfection of NIH-3T3 cells with pCMV β-gal DNA, in situ β-galactosidase staining; assay type: cell-based
Procedure: as §1, §2

Jurkat cells = assay: Transfection of Jurkat cells with pCMVCAT DNA, CAT activity of cell lysates; assay type: cell-based
Procedure: as §1
For each transfection sample, 1×10^6 Jurkat cells were centrifuged in a microfuge tube. The cell pellets were suspended with the lipid-DNA complex solutions and transferred to wells of 12-well plates. […] After approximately 24 hr, one ml growth medium containing 10% FBS, 50 ng/ml PMA and 1 μg/ml PHA was added to each well. Antibiotics were never present during lipid-mediated transfections. Cells were harvested at approximately 48 hr post-transfection by centrifugation. Cell lysates were prepared by resuspending cell pellets at 0° C. in 1 M Tris-HCl pH 8.0 containing 0.1% Triton X-100 and 5 μl aliquots were assayed for chloramphenicol acetyltransferase (“CAT”)activity.
Cell lysates were assayed for CAT activity as described by Neumann et al. (1987) BioTechniques 5:444. Cells were rinsed with PBS and frozen at −70° C. in 0.5-1.5 ml 0.1% Triton X-100 in 0.1 M Tris, pH 8.0. After rapid thawing at 37° C., the lysate was cleared by centrifugation. When more than 5 μl of a 1 ml extract was to be used in the assay, the extract was heated to 65° C. for 10 minutes to inactivate any deacetylases present, and centrifuged again. When necessary, the extract was diluted in 0.1 M Tris pH 7.8-8.0. […]

[1] = system: primary human fibroblasts; assay: Transfection of primary human fibroblasts with pCMV β-gal DNA, in situ β-galactosidase staining; details: primary human fibroblast cells

Measured: toxicity to transfected cells

N,N,N′,N′-tetramethyltetrapalmyl-sperminetetrammonium iodide [Compound 3]
minimal toxicity: all assays above
